Like-named read-outs stand apart in the source and are kept apart here.
Experiments:
[1] = for ClO2 concentration detected: UV 254 nm 15 min
[2] = assay type: physicochemical; conditions: upper detection limit 240 ppm
[3] = 254 nm 15 min, stored in N2, release at 60% RH

sodium chlorite [NaClO2]
total ClO2 potentially available for release in the system ([1]; 100 mg NaClO2 sample): ~60 mg
time activated samples maintain the same activity level [1, 3]: about fifteen
time activated samples retain activity (still release ClO2) [1, 3]: ≥ 48 h
time after which a meaningful decrease in activity starts [1, 3]: twenty four
total ClO2 produced in 15 min during the release step ([1]; 254 nm, 30-75% RH): 2 to 25 µg
UV-irradiation time up to which amount of ClO2 released increased ([1]; 254 nm, release 15 min at 60% RH): up to 10 min
total ClO2 produced in 15 min during the release step ([1]; 312 nm, 45-75% RH): 1.5 to 15 µg
total ClO2 produced in 15 min during the release step ([1]; 365 nm, 45-75% RH): 0.9 to 7 µg
ClO2 concentration detected ([1]; moist N2 15% RH): no ClO2 was detected
ClO2 concentration detected ([1]; moist N2 30% RH): 0.01-0.13 ppm
ClO2 concentration detected ([1]; moist N2 45% RH): 0.08-0.3 ppm
ClO2 concentration detected ([1]; moist N2 60% RH): 0.15-0.65 ppm
ClO2 concentration detected ([1]; moist N2 75% RH, detector range 0-1 ppm): 0.28-1 ppm
release of ClO2 from non-activated samples ([1]; UV duration experiment, 0 min UV, 60% RH): no release of ClO2 could be detected
minimum RH at which detectable levels of ClO2 (>0.01 ppm) is produced ([1]; UV-activation 254 nm): 30%
minimum RH at which detectable levels of ClO2 (>0.01 ppm) is produced ([1]; UV-activation 312 nm): 45%
minimum RH at which detectable levels of ClO2 (>0.01 ppm) is produced ([1]; UV-activation 365 nm): 45%
effect of initial moisture content on ClO2 release ([1]; equilibrated 1 h at RH 0-75%, 254 nm 15 min, release in dry N2): ClO2 release from activated samples increases with increasing the initial moisture content of NaClO2
ClO2 detected in control samples ([1]; no UV light during activation step): no ClO2 was detected
tunability of quantity of ClO2 released ([1]; varying UV wavelength, relative humidity, duration of UV exposure): ~25 fold

sodium chlorite [Sample 6]
ClO2 concentration after fluorescent light exposure ([2]; 20 mL sealed vial, compact fluorescent light approximately 4.5 hours): 63 ppm
ClO2 concentration after UV (254 nm) light exposure ([2]; subsequent UV 254 nm 15 seconds): >240 ppm
